{"source": "patent US12594292B2", "about": "“Antiviral prodrugs, intermediate-and long-acting formulations and methods” (priority 2022, dated 2026)", "assay": "3 month (105 day) study of monthly IM injections of ODE-Bn-TFV in formulation F3 in rats", "details": "3 monthly IM doses at 0, 30 and 60 days"}
{"compound": "CCCCCCCCCCCCCCCCCCOCCOP(=O)(O)CO[C@H](C)Cn1cnc2c(N)ncnc21", "note": "[ODE-TFV]", "values": [{"measurement": "time therapeutic levels were maintained", "value": 105, "unit": "days"}]}
